These results are taken from patent US20250074908A1, “SALT OF ROCK INHIBITOR, CRYSTAL FORM OF SALT, COMPOSITION, AND PHARMACEUTICAL USE” (WUHAN CREATERNA SCIENCE AND TECHNOLOGY CO., LTD., priority 2022, published 2025).

In brackets after ≈: the same amount, converted by molar mass.

A short description of data set [1]: Solubility in biologically relevant media at 37° C. (free base crystal form I, crystal form III of maleate). In kind it is physicochemical. Here is the method:
(§1) A) The HPLC method used for the solubility test was as follows:
15 mg of each sample was weighed and dispersed in 3.0 mL of biologically relevant medium. The dispersion was shaken on a shaker at a rotation speed of 800 rpm at 37° C. 1 mL of the dispersion was taken at 0.5 h, 2 h, and 24 h, and filtered. The filtrate was tested for solubility by Agilent HPLC 1260 series and for pH value by a pH meter. The filter cake was characterized for the crystal form by XRPD.

Data set [2] can be described thus: Solubility in biological media and purified water at 37° C. (tartrate, ethanesulfonate, 2-hydroxyethanesulfonate, sulfate). In kind it is physicochemical. To be noted: for solubility in SGF: level over the 24 h test; for solubility in SGF / XRPD spectra in the three biological media: SGF; for solubility in FaSSIF within 24 h / XRPD spectra in the three biological media: FaSSIF; for XRPD spectra in the three biological media: after solubility test; for pH of solutions in the solubility test: three biological media. How it is done: as §1
4 parallel samples of each of the crystal form I of tartrate, the crystal form I of ethanesulfonate, and the crystal form I of 2-hydroxyethanesulfonate (with about 5 mg per sample) were weighed and each placed into a 10 mL centrifuge tube, and then 5 mL of the corresponding biological medium solution was added to each tube; the tubes were capped, and the samples were suspended homogeneously. 10 parallel samples of the crystal form I of sulfate (with 1 mg per sample) were weighed and placed in centrifuge tubes, then 2 mL of the corresponding biological medium solution was added to each tube, and the samples were suspended homogeneously. The centrifuge tubes were shaken on a constant temperature incubator shaker (at a temperature of 37° C., with a shaking frequency of 100 times/min).

For the compound `Cn1c(C(=O)N2CC(F)(F)C2)cc2c1CN(c1ncc(F)c(Nc3ccc(-c4cn[nH]c4)cc3)n1)CC2.O=C(O)/C=C\C(=O)O` [Crystal form III of maleate], the “Solubility 2 h” value in data set [1] (FaSSIF, 2 h) worked out at 0.16 µg/mL. Also, the “Solubility 0.5 h” value in data set [1] (SGF, 0.5 h) came to 24.00 µg/mL.
`Cn1c(C(=O)N2CC(F)(F)C2)cc2c1CN(c1ncc(F)c(Nc3ccc(-c4cn[nH]c4)cc3)n1)CC2` [Free base crystal form I]: the solubility at 2 h in data set [1] (thermodynamic from solid, FaSSIF, 2 h) amounted to 0.76 µg/mL (≈ 1.49 µM). The same compound showed a solubility at 0.5 h in data set [1] (thermodynamic from solid, FeSSIF, 0.5 h) of 0.4 µg/mL (≈ 0.787 µM).
With `Cn1c(C(=O)N2CC(F)(F)C2)cc2c1CN(c1ncc(F)c(Nc3ccc(-c4cn[nH]c4)cc3)n1)CC2.O=C(O)C(O)C(O)C(=O)O` [Crystal form I of tartrate], in data set [2] (FaSSIF (pH 6.5), 37° C.), the “Solubility 1 h” value was 2 µg/mL, the “Solubility 2 h” value was determined as 1 µg/mL, the “Solubility 4 h” value was 2 µg/mL and the “Solubility 24 h” value came out at 1 µg/mL. Besides, in data set [2] (37° C.), the “solubility in FaSSIF within 24 h” value is 1 to 2 µg/mL and the “solubility in SGF” value is listed as “around 50 μg/mL”. For the same compound, in data set [2] (FeSSIF (pH 5.0), 37° C.), the “Solubility 1 h” value came out at 26 µg/mL, the “Solubility 2 h” value was 21 µg/mL, the “Solubility 4 h” value turned out to be 19 µg/mL and the “Solubility 24 h” value amounted to 16 µg/mL. Further, in data set [2] (FeSSIF, 37° C., 0-24 h), the “solubility in FeSSIF over a period of 0-24 h” value lay within 16 to 26 µg/mL. Moreover, in data set [2] (SGF (pH 1.2), 37° C.), the “Solubility 1 h” value came out at 46 µg/mL, the “Solubility 2 h” value turned out to be 50 µg/mL, the “Solubility 4 h” value amounted to 50 µg/mL and the “Solubility 24 h” value was 51 µg/mL. Besides, the “XRPD spectra in the three biological media” value in data set [2] (FeSSIF) was “all changed, with a certain degree of decrease in crystallinity observed”. Besides, in data set [2] (after 24 h in Purified water), the “XRPD (24 h)” value is given as “Remained unchanged”. Also, in data set [2], the “pH of solutions in the solubility test” value was “did not change significantly”.
As to `CCS(=O)(=O)O.Cn1c(C(=O)N2CC(F)(F)C2)cc2c1CN(c1ncc(F)c(Nc3ccc(-c4cn[nH]c4)cc3)n1)CC2` [Crystal form I of ethanesulfonate], in data set [2] (FaSSIF (pH 6.5), 37° C.), the “Solubility 1 h” value worked out at 3 µg/mL, the “Solubility 2 h” value is 3 µg/mL, the “Solubility 4 h” value turned out to be 3 µg/mL and the “Solubility 24 h” value was 2 µg/mL. In addition, the “solubility in FaSSIF within 24 h” value in data set [2] (37° C.) lay in the range of 2 to 3 µg/mL. In data set [2] (FeSSIF (pH 5.0), 37° C.), the “Solubility 1 h” value stood at 85 µg/mL, the “Solubility 2 h” value came out at 76 µg/mL, the “Solubility 4 h” value amounted to 61 µg/mL and the “Solubility 24 h” value was found to be 12 µg/mL. In data set [2] (SGF (pH 1.2), 37° C.), the “Solubility 1 h” value amounted to 101 µg/mL, the “Solubility 2 h” value worked out at 101 µg/mL, the “Solubility 4 h” value was 97 µg/mL and the “Solubility 24 h” value was 72 µg/mL. In addition, the “XRPD spectra in the three biological media” value in data set [2] (FeSSIF) was “all changed, with a certain degree of decrease in crystallinity observed”. Also, the “XRPD (24 h)” value in data set [2] (after 24 h in FeSSIF (pH 5.0)) was “became almost amorphous”. Besides, the “XRPD (24 h)” value in data set [2] (after 24 h in Purified water) is given as “Remained unchanged”. In addition, the “pH of solutions in the solubility test” value in data set [2] is reported as “did not change significantly”.
On to `Cn1c(C(=O)N2CC(F)(F)C2)cc2c1CN(c1ncc(F)c(Nc3ccc(-c4cn[nH]c4)cc3)n1)CC2.O=S(=O)(O)CCO`, for which, in data set [2] (FaSSIF (pH 6.5), 37° C.), the “Solubility 1 h” value was 4 µg/mL, the “Solubility 2 h” value was found to be 5 µg/mL, the “Solubility 4 h” value was 3 µg/mL and the “Solubility 24 h” value turned out to be 3 µg/mL. Moreover, in data set [2] (37° C.), the “solubility in FaSSIF within 24 h” value lay within 3 to 5 µg/mL and the “solubility in SGF” value was “around 56 μg/mL”. For the same compound, in data set [2] (FeSSIF (pH 5.0), 37° C.), the “Solubility 1 h” value came out at 85 µg/mL, the “Solubility 2 h” value worked out at 76 µg/mL, the “Solubility 4 h” value was 62 µg/mL and the “Solubility 24 h” value came to 28 µg/mL. Also, in data set [2] (SGF (pH 1.2), 37° C.), the “Solubility 1 h” value turned out to be 55 µg/mL, the “Solubility 2 h” value amounted to 56 µg/mL, the “Solubility 4 h” value came to 56 µg/mL and the “Solubility 24 h” value is 57 µg/mL. The “XRPD spectra in the three biological media” value in data set [2] (FeSSIF) is “all changed, with a certain degree of decrease in crystallinity observed”. For the same compound, the “XRPD (24 h)” value in data set [2] (after 24 h in Purified water) is “Remained unchanged”. For the same compound, the “pH of solutions in the solubility test” value in data set [2] is reported as “did not change significantly”.
